Bioassay records from PubChem.
Sampled rows, rich in hits. Any-hit rate of the full collection: about 1.3%.
ARNT-TACC3 inh = ARNT/TACC3 interaction disruption; Q9Y6A5; AlphaScreen His-ARNT PAS-B/GST-TACC3 binding, luminescence; TACC3 fragment carries E629A point mutation; inhibition, % at 9.99 µM; 0.66% of 390,000 active; AID 623870;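 active = mean inhibition of replicates at least 50% and at least half of replicates each reaching 50%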;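 also: 0% = complete ARNT plus TACC3 wells and 100% = ARNT alone without TACC3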
S100A4 inh HTS = S100A4-myosin IIA interaction inhibition. S100A4/TAMRA-MyoIIA peptide fluorescence polarization. inhibition, % at 10.7 µM. 0.14% of 360,000 active;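 active = mean inhibition of at least 70% across replicates, with every replicate also reaching that level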
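Assay system: human S100A4 monomer with TAMRA-labelled myosin IIA peptide / Buffer or medium: Calcium-containing HEPES buffer, pH 7.2 / Reagent: TAMRA-labelled myosin IIA heavy-chain peptide probe, 5 nM / Compound: one dose per compound / Timing: polarization read 5 min after assay mix addition, stable 5–60 min / Benchmarks: neutral control DMSO, positive control TFP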
ERAP1 inh = inhibitors of human ERAP1 aminopeptidase; Q9NZ08; recombinant ERAP1, Leu-AMC fluorescence, 60 min; inhibition, % at 10.7 µM; 0.15% of 340,000 active; AID 652197;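 active = mean replicate inhibition of at least 30%, or all replicates individually reaching that 30% level; inactive = mean below 30% and not every replicate reaching it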;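 also: 0% = neutral control wells and 100% = L-leucinethiol positive control wells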
AF4-AF9 inh = blocks AF4 peptide binding to human AF9 | AlphaScreen, biotin-AF4 peptide binding to FLAG-AF9 | P42568 | 0.47% of 350,000 active | inhibition, % at 10 µM;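 active = every replicate reaching a set inhibition limit, whatever the replicate mean, cut at about 25% in these data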;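 also: 0% = plate neutral control median and 100% = total signal loss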
E-selectin induc = E-selectin induction on HUVECs; P16581; HUVEC E-selectin immunofluorescence imaging; normalized: neutral wells 0, TNF-alpha wells 100; activation, % at 7.58 µM; 0.37% of 260,000 active; AID 686992;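 active = mean E-selectin-positive cell signal at least 10% of the positive control, reached in at least 60% of replicates, without over 20% cell loss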
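Assay system: HUVEC, human umbilical vein endothelial cells / Amount: 3,000 HUVEC/well / Controls: TNF-alpha positive control, DMSO neutral control / Compound dosing: single concentration / Medium: EGM-2 over gelatin coat / Evaluation: percent E-selectin-positive cells / Signal: immunofluorescence imaging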
Yeast UUG start = modulators of start codon recognition fidelity in yeast; S. cerevisiae UUG-firefly luciferase reporter, luminescence/redox ratio; activity score, % at 18.7 µM; hit rate 0.13% among 350,000; AID 602363;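 active = replicate mean at a twofold rise or more, about +100% in these data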;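 note: firefly luciferase made from a UUG start codon reports start codon fidelity; reporter light over untreated wells divided by growth signal over untreated wells; some hits fall short of that in this replicate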
Starred values were filed as active, the others as inactive; nt = no result given.

Start of the data: the first 2 records (preview)
# | Molecule | AF4-AF9 inh | E-selectin induc | S100A4 inh HTS | ERAP1 inh | Yeast UUG start | ARNT-TACC3 inh
1 | COC(=O)C1=CO[C@@H](O[C@@H]2O[C@H](CO)[C@@H](O)[C@H](O)[C@H]2O)C2C(CO)=CCC12 (stereo partly drawn) | -2.3 | 0.1 | 22.9 | nt | 8.4 | -2.9
2 | NCC[C@H](O)C(=O)N[C@@H]1C[C@H](N)[C@@H](O[C@H]2O[C@H](CN)[C@@H](O)[C@H](O)[C@H]2O)[C@H](O)[C@H]1O[C@H]1O[C@H](CO)[C@@H](O)[C@H](N)[C@H]1O | 61.6* | -1.9 | -3.1 | -0.7 | -15.2 | 1.9

The whole of this part, repeating the preview:
# | Molecule | AF4-AF9 inh | E-selectin induc | S100A4 inh HTS | ERAP1 inh | Yeast UUG start | ARNT-TACC3 inh
1 | COC(=O)C1=CO[C@@H](O[C@@H]2O[C@H](CO)[C@@H](O)[C@H](O)[C@H]2O)C2C(CO)=CCC12 (stereo partly drawn) | -2.3 | 0.1 | 22.9 | nt | 8.4 | -2.9
2 | NCC[C@H](O)C(=O)N[C@@H]1C[C@H](N)[C@@H](O[C@H]2O[C@H](CN)[C@@H](O)[C@H](O)[C@H]2O)[C@H](O)[C@H]1O[C@H]1O[C@H](CO)[C@@H](O)[C@H](N)[C@H]1O | 61.6* | -1.9 | -3.1 | -0.7 | -15.2 | 1.9
3 | Cc1noc(C)c1S(=O)(=O)Nc1ccc2c(c1)CC(=O)N([C@@H](C)CO)C[C@H](C)[C@H](CN(C)Cc1ccncc1)O2 | -2.3 | nt | -0.8 | -0.1 | -14.5 | -2.8
4 | COc1ccc2c3c(n(C)c2c1)[C@H](CO)N(C(=O)c1ccccc1)CC31CCN(C(=O)c2ccccc2)CC1 | 12.5 | -0.2 | 73.0* | -3.6 | nt | nt
5 | COc1ccc(S(=O)(=O)N2CCC3(CC2)CN(C(=O)CN(C)C)[C@@H](CO)c2c3c3ccc(OC)cc3n2C)cc1 | 34.6* | 0.7 | 4.7 | -2.0 | nt | nt
6 | COc1ccc2c3c(n(C)c2c1)[C@H](CO)N(C(=O)c1ccccc1)CC31CN(Cc2ccccc2OC)C1 | 44.5* | -0.8 | nt | nt | nt | nt
7 | COc1ccc2c3c(n(C)c2c1)[C@H](CO)N(C(=O)c1ccccc1)CC31CCN(C(C)=O)CC1 | -0.6 | 0.3 | 4.0 | -4.5 | nt | nt
8 | CC(O)C(=O)N/N=C/c1ccccc1C(=O)O (stereo not drawn) | -2.2 | 375.0* | -1.3 | 0.5 | -5.7 | -15.1
9 | COc1ccc(/C=N\NC(=O)c2cc(O)c(O)c(O)c2)cc1COc1ccc(C(=O)OCC(C)C)cc1 | 53.9* | -0.1 | -0.7 | -1.3 | -4.5 | 13.9
10 | COc1ccc(C(=O)N/N=C/c2ccc(OC)c(COc3ccccc3)c2)cc1 | -1.3 | -0.1 | -0.3 | 3.4 | -14.8 | -14.0
11 | O=C(C1CCCC1)N1CC2(C1)[C@H](c1ccccc1)[C@@H](CO)N2CC1CCCC1 | -2.2 | 0.1 | 0.2 | -1.3 | nt | nt
12 | CCOC(=O)c1c(CC(C)C)csc1/N=C/C1C(=O)CCCC1=O | 5.2 | 33.2* | -14.2 | 0.9 | nt | 7.0
13 | CCOC(=O)c1c(-c2ccccc2)csc1/N=C/C1C(=O)CCCC1=O | nt | nt | nt | nt | nt | -1.1
14 | O=C1c2ccccc2-c2onc3ccc(N4CCCC4)c1c23 | 28.4* | nt | 53.1 | 0.8 | nt | 19.0
15 | O=C1c2ccccc2C(=O)c2c1cccc2N1CCCC1 | 39.9* | 0.8 | 0.1 | -1.7 | 6.4 | 19.9

(cont.)
# | Molecule | AF4-AF9 inh | E-selectin induc | S100A4 inh HTS | ERAP1 inh | Yeast UUG start | ARNT-TACC3 inh
16 | O=C(Nn1c(-c2ccncc2)nc2ccccc2c1=O)c1ccccc1Br | -1.0 | 113.6* | 3.1 | -0.5 | nt | 6.0
17 | CC(NC(=O)/C(C#N)=C/c1ccc([N+](=O)[O-])o1)c1ccccc1 (stereo not drawn) | 6.4 | 41.8* | -5.1 | 3.6 | -16.3 | 1.4
18 | Nc1nnc(SCC(=O)Nc2nnc(-c3ccccc3)o2)s1 | -0.2 | 3.8 | -0.1 | 2.1 | -11.5 | 10.9
19 | Nc1nnc(SCc2nnc(-c3ccccc3)o2)s1 | -2.4 | 523.3* | -0.3 | -0.2 | nt | nt
20 | O=S(=O)(c1ccc(Br)cc1)c1nc(-c2ccco2)oc1NCCCn1ccnc1 | 4.1 | nt | -0.6 | -0.9 | nt | 64.0*
21 | O=S(=O)(c1ccccc1)c1nc(-c2cccs2)oc1NCCCn1ccnc1 | nt | nt | nt | nt | -13.1 | 10.2
22 | Cc1ccc(S(=O)(=O)Nc2ccc3c(c2)C(=O)N([C@H](C)CO)C[C@@H](C)[C@@H](CN(C)Cc2ccc(C(F)(F)F)cc2)OCCCC[C@H](C)O3)cc1 | 10.0 | nt | 4.9 | -0.9 | 13.2 | 1.9
23 | O=C(c1ccccc1)c1ccccc1N1C(=O)C=CC1=O | 5.5 | 1.2 | -0.1 | nt | nt | -6.5
24 | O=C1C=CC(=O)N1c1ccccc1N1C(=O)C=CC1=O | -2.1 | 0.0 | -2.7 | 58.1* | -20.0 | -1.6
25 | CCCC(=O)Nc1ccc2c(c1)C(=O)N(C)C[C@@H](OC)[C@H](C)CN(Cc1cc(-c3ccccc3)on1)[C@H](C)CO2 | 1.4 | 0.5 | -1.4 | 1.4 | 1.3 | 5.1
26 | C[C@H](CO)N1C[C@H](C)[C@H](CN(C)C)Oc2cc(C3=CCCC3)ccc2S1(=O)=O | -3.0 | -0.2 | 97.7* | -3.2 | 46.2 | 8.9
27 | CCC(=O)N(C)C[C@H]1Oc2cc(C3=CCCC3)ccc2S(=O)(=O)N([C@@H](C)CO)C[C@@H]1C | -3.8 | 70.5* | -80.0 | 0.3 | 4.4 | -3.6
28 | CCN(CC)C(=O)c1ccc(/C=C/c2c[nH]c3ccccc23)[n+](C)c1 | nt | nt | nt | nt | nt | 2.4
29 | CC[n+]1c(/C=C/c2c[nH]c3ccccc23)ccc2cc(C)ccc21 | 26.4* | nt | 128.8* | 14.3 | nt | 27.2
30 | C[C@@H]1CN([C@@H](C)CO)S(=O)(=O)c2ccc(-c3ccc(C(=O)N(C)C)cc3)cc2O[C@H]1CN(C)C(=O)C1CC1 | nt | 0.1 | nt | nt | nt | nt

5 of the entries above in order of the ERAP1 inh value, descending.
item | smiles | AF4-AF9 inh | S100A4 inh HTS | ERAP1 inh | Yeast UUG start | ARNT-TACC3 inh
24 | O=C1C=CC(=O)N1c1ccccc1N1C(=O)C=CC1=O | -2.1 | -2.7 | 58.1* | -20.0 | -1.6
18 | Nc1nnc(SCC(=O)Nc2nnc(-c3ccccc3)o2)s1 | -0.2 | -0.1 | 2.1 | -11.5 | 10.9
25 | CCCC(=O)Nc1ccc2c(c1)C(=O)N(C)C[C@@H](OC)[C@H](C)CN(Cc1cc(-c3ccccc3)on1)[C@H](C)CO2 | 1.4 | -1.4 | 1.4 | 1.3 | 5.1
16 | O=C(Nn1c(-c2ccncc2)nc2ccccc2c1=O)c1ccccc1Br | -1.0 | 3.1 | -0.5 | nt | 6.0
22 | Cc1ccc(S(=O)(=O)Nc2ccc3c(c2)C(=O)N([C@H](C)CO)C[C@@H](C)[C@@H](CN(C)Cc2ccc(C(F)(F)F)cc2)OCCCC[C@H](C)O3)cc1 | 10.0 | 4.9 | -0.9 | 13.2 | 1.9

(listing goes on)
# | Molecule | AF4-AF9 inh | E-selectin induc | S100A4 inh HTS | ERAP1 inh | Yeast UUG start | ARNT-TACC3 inh
31 | Oc1cccc(/C=N/NC(=S)NCCN2CCOCC2)c1O | -4.0 | -0.2 | 7.7 | 2.3 | nt | 69.2*
32 | O=C(O)c1cc(Nc2cc(Cl)c3nonc3c2[N+](=O)[O-])ccc1O | -0.8 | 0.1 | 2.8 | 35.8* | 7.5 | 19.2
33 | COc1ccc(NC(=O)CCCN2C(=O)CN(C)C2=O)c(OC)c1 | 33.0* | 0.1 | 2.3 | -0.7 | -0.8 | 12.3
34 | COc1ccc(NC(=O)CCN2C(=O)c3ccccc3C2=O)c(OC)c1 | -7.7 | nt | 2.9 | -6.3 | 2.7 | -1.8
35 | COc1ccc(C2=Nn3c(nnc3-c3ccccc3OC)SC2)cc1OC1CCOC1 (stereo not drawn) | 8.1 | 0.0 | 0.0 | nt | 5.2 | 46.6*
36 | COC1=C(Nc2ccc(O)cc2)C(=O)c2ccccc2C1=O | 50.0* | nt | 3.9 | 2.9 | nt | 35.3
37 | COC1=C(Nc2ccc(OC)cc2)C(=O)c2ccccc2C1=O | nt | -0.3 | nt | nt | nt | 52.6*
38 | CCOc1ccc(NC2=C(OC)C(=O)c3ccccc3C2=O)cc1 | nt | nt | nt | nt | nt | 38.9
39 | O=C(C[C@H]1C[C@@H]2c3cc(NC(=O)C4CCC4)ccc3O[C@@H]2[C@H](CO)O1)NCc1ccc(-c2ccccc2)cc1 | -1.1 | 0.8 | 4.2 | 1.8 | -2.5 | 0.3
40 | O=C(O)c1c[nH]n2c(=S)ncnc12 | -0.2 | nt | -3.4 | -0.2 | 19.3 | nt
41 | O=C(O)c1cc(=S)nc[nH]1 | 6.5 | -0.4 | 3.4 | 19.8 | -10.6 | 73.1*
42 | Cn1cccc1/C=N/NC(=O)c1cc(-c2cccs2)nc2ccccc12 | 32.5* | 0.3 | 1.6 | -1.2 | nt | 29.3
43 | O=C(N/N=C/c1ccc[nH]1)c1cc(-c2cccs2)nc2ccccc12 | 17.8 | nt | -2.6 | 2.3 | -9.7 | 23.7
44 | CC(C)(C)NC(=O)CCN(/N=C/c1ccc([N+](=O)[O-])o1)C1=NS(=O)(=O)c2ccccc21 | 5.3 | nt | -2.3 | -2.8 | -2.0 | 78.7*
45 | CC(C)C[C@H]1CN(CCCC[C@@H]2CNC(=O)C(=O)N2Cc2ccccc2)C(=O)C(=O)N1Cc1ccccc1 | -0.4 | nt | 90.4* | -1.0 | nt | nt
46 | O=C(CNC(=S)NC(=O)c1ccc(F)cc1)c1ccccc1 | 6.5 | 1.1 | -7.6 | 3.7 | nt | -1.6
